Test results from patent US12202828B2, “Bicyclic heterocycle compounds and their uses in therapy” (ASTEX THERAPEUTICS LIMITED, priority 2013, dated 2025).
Where “and” joins values, the source holds several entries; their conditions need not be identical. Equal entries are not always repeated.

Sequences of proteins named here, by UniProt entry; tags and fusion partners are left off.
UniProt Q12809, whole entry: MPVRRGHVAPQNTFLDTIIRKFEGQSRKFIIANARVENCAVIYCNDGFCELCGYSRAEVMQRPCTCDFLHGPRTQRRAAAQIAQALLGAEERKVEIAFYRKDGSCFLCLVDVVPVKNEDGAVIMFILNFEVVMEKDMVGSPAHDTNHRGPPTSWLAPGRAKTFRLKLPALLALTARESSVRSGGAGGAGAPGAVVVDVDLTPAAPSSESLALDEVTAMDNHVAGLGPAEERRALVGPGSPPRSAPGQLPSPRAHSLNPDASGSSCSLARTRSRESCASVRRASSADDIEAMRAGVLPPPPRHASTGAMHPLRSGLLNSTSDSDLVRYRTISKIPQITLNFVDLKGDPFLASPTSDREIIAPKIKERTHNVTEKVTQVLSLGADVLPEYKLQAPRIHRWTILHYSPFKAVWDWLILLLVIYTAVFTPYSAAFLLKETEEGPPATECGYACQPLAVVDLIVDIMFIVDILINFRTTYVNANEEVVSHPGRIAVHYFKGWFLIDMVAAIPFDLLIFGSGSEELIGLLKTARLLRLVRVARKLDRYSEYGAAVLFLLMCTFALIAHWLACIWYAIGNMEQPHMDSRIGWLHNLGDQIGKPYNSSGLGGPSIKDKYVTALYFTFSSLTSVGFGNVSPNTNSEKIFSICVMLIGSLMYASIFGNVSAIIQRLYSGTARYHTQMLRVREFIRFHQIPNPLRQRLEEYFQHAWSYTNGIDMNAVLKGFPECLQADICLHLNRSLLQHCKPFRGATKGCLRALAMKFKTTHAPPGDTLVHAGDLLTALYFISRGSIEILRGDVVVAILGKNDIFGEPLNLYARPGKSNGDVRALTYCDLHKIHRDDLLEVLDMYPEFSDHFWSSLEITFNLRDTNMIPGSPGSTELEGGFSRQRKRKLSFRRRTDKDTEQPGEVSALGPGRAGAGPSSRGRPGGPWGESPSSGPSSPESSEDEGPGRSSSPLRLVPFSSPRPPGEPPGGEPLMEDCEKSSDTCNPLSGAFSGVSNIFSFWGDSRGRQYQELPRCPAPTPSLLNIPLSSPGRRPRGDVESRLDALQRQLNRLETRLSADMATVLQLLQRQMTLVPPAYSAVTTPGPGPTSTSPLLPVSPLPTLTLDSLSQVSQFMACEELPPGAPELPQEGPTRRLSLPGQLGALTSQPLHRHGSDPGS

Legend:
[1] = tested on: EVSA-T (human breast carcinoma); assay: Anti-proliferative activity, Alamar Blue assay, EVSA-T; format: cell-based; conditions: read-out: EVSA-T prolif, 72 hours compound, tested form: 2HCl
hERG ion channel = hERG ion channel (Homo sapiens, UniProt Q12809); assay: Population Patch Clamp (PPC) hERG assay in CHO K1 cells; format: cell-based; conditions: @ 10 μM; tested form: 2HCl; listed as Example 259 (also 262 and 263) of WO 2012/143726

EC50 [1]: 0.82 nM and 0.83 nM
SMILES: C[C@@H]1CN(CC(=O)N2CC(C)(C)c3ncc(Cc4ccc(F)cc4)cc32)[C@@H](CN2CCOC[C@H]2C)CN1
hERG PPC (PI) (hERG ion channel): 42%
